Data: ChEMBL document CHEMBL1140140, “4-[3-(4-cyclopropanecarbonylpiperazine-1-carbonyl)-4-fluorobenzyl]-2H-phthalazin-1-one: a novel bioavailable inhibitor of poly(ADP-ribose) polymerase-1” (J Med Chem, 2008)

Chains of the proteins cited; added tags and fusions are not shown.
UniProt P09874, whole entry: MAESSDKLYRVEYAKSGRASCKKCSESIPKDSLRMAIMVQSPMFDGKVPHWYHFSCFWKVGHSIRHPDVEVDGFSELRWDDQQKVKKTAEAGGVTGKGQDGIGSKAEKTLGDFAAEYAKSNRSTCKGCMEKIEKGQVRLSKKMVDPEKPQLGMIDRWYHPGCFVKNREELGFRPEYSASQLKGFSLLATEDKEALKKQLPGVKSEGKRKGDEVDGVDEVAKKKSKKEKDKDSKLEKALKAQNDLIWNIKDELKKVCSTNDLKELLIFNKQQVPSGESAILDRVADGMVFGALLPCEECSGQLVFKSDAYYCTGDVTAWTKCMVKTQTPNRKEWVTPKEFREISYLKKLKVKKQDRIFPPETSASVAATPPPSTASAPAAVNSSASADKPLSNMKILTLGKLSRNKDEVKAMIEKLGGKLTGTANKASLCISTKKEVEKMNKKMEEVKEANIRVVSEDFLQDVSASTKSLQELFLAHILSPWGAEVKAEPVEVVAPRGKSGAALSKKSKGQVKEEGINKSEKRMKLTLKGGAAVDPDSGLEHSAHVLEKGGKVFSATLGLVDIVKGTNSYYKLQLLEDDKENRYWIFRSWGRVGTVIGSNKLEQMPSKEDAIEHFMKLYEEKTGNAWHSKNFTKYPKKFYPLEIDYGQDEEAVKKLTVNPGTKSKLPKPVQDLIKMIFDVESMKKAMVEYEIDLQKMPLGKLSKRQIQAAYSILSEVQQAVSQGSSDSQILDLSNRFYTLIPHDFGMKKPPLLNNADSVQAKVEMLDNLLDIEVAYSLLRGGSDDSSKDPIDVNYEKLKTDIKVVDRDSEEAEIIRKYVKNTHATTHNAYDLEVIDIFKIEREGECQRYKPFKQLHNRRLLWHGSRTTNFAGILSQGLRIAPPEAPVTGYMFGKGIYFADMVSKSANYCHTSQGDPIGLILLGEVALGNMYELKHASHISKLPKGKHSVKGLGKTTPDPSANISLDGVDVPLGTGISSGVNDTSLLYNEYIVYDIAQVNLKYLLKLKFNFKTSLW

Molecular target: Poly [ADP-ribose] polymerase 1 (Homo sapiens, UniProt P09874)

O=C(c1cc(Cc2n[nH]c(=O)c3ccccc23)ccc1F)N1CCN(CC2CC2)CC1
IC50: 4 nM
